The text below walks through data of PubChem BioAssay (Tox21).

The chains behind the UniProt entries cited, without tags or fusion partners. Where a name states a change or a piece, a line headed by the entry shows the natural chain unless it says otherwise.
UniProt P10275: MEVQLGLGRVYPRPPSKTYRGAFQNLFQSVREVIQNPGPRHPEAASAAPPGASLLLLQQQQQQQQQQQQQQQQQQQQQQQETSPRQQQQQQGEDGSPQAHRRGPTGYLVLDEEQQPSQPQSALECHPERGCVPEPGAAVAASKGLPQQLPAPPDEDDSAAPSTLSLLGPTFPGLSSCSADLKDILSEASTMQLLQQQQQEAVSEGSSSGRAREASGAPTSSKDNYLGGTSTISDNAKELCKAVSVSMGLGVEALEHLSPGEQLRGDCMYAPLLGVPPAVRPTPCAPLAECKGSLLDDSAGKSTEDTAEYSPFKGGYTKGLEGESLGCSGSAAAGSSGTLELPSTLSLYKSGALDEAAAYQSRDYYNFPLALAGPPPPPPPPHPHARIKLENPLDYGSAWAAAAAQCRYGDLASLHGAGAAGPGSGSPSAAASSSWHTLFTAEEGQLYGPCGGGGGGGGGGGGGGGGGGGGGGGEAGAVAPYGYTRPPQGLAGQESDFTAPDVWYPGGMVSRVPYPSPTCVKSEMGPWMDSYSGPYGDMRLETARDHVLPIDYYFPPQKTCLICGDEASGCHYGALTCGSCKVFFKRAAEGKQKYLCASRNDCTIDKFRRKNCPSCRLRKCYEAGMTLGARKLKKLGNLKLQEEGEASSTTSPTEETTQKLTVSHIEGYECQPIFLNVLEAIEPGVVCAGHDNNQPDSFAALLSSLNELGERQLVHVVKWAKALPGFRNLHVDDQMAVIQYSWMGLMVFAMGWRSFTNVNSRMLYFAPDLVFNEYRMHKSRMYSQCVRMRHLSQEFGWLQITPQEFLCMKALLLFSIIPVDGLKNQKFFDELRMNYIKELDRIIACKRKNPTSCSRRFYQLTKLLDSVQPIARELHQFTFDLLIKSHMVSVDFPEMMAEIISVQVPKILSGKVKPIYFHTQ
UniProt P03372, whole entry, looked up: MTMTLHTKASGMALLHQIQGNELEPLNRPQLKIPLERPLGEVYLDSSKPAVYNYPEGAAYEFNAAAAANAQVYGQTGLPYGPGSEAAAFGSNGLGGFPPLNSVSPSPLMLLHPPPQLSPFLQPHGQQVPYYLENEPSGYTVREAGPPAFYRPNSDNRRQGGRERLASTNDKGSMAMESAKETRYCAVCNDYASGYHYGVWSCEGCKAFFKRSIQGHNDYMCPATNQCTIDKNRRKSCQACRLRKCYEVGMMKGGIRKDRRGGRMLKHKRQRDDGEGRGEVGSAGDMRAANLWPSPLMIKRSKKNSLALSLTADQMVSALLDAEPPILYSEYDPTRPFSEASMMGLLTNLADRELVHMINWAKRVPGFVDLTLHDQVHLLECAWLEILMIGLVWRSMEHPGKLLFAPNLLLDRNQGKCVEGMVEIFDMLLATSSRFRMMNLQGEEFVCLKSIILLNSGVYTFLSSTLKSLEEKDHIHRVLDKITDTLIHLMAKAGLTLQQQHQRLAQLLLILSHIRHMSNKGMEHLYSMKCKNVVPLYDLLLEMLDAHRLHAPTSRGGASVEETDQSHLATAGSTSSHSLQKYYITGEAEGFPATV
UniProt P04150: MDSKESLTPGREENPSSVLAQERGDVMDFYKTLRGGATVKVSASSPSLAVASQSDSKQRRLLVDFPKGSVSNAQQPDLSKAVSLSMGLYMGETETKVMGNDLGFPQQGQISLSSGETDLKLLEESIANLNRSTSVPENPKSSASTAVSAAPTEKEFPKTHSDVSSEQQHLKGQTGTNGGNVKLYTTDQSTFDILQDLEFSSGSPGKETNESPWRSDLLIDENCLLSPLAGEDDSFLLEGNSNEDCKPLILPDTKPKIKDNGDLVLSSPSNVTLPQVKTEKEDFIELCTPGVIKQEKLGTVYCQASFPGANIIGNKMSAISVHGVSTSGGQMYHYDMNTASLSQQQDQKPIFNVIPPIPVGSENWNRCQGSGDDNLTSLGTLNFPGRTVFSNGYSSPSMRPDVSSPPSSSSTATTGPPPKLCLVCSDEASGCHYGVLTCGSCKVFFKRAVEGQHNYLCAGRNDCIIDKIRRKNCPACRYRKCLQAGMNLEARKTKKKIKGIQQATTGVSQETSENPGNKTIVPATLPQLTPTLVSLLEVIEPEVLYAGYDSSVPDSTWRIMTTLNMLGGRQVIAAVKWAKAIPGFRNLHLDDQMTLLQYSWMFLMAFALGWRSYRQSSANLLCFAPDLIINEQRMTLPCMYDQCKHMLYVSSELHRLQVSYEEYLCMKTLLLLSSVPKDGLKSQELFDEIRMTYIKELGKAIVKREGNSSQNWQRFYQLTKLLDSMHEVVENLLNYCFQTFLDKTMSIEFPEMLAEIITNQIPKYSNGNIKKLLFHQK

The structures appear in SMILES notation. Where “and” joins values, the source holds several entries; their conditions need not be identical. Identical values can stand only once. Only a part is listed here, and it is no random draw. Results filed as inconclusive are left out. Calls of active or inactive are those of the source. Unless noted, calls follow the shape of the dose curve; as a rule, active = well fitted curve in the direction sought with a large enough effect in the repeat runs; inconclusive = weak or mixed curves; inactive = no such curve, though single readings can be large; an effect the other way counts as inactive or inconclusive.

Test [1] in a line: qHTS assay to test for compound auto fluorescence at 460 nm (blue) in HepG2 cell free culture (AID 720685). Particulars: Cell-free culture medium, blue autofluorescence 405/460 nm; at 91.3 µM (top of the series) unless noted. In outline:
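Compound (23 nL) or DMSO pinned into cell-free MEM with 10% FBS; blue fluorescence read at 405/460 nm excitation/emission, expressed as auto-fluorescence equivalency to triamterene.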

The nature of test [2]: qHTS assay to test for compound auto fluorescence at 535 nm (green) in HepG2 cell free culture (AID 720686). Particulars: Cell-free medium, green autofluorescence 485/535 nm; at 91.3 µM (top of the series) unless noted. (In general: Quantitative high-throughput screening tests each substance at several concentrations.)
Test [3] is described as follows: qHTS assay to test for compound auto fluorescence at 460 nm (blue) in HepG2 cells (AID 720687). Conditions: autofluorescence 405/460 nm, 1 h; at 91.3 µM (top of the series) unless noted. A digest of the protocol: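 Cells (2,000/well in MEM with 10% FBS) attached overnight at 37 C, then were exposed to compound or DMSO for 1 hr at 37 C, 5% CO2. Fluorescence read at Ex/Em 405/460 nm, expressed as triamterene-equivalent signal.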

A short description of test [4]: qHTS assay to identify small molecule antagonists of the glucocorticoid receptor (GR) signaling pathway - cell viability counter screen (AID 720693). Also: nearly all actives have a fitted effect of over 55% in size. Also: potency is read from the fitted curve at half-maximal effect.
Test [5] can be described thus: qHTS assay for identifying genotoxic compounds that show differential cytotoxicity against isogenic chicken DT40 cell lines with known DNA damage response pathways - wild type cell line (AID 743012). Also: nearly all actives have a fitted effect of over 60% in size. Also: potency is read from the fitted curve at half-maximal effect. A digest of the protocol: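 Quantitative HTS on parental DT40 cells: 40 h compound treatment at 37 C/5% CO2, with viability then determined by CellTiter-Glo luminescence. Values serve as the DNA repair-proficient reference for differential cytotoxicity.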

The nature of test [6]: qHTS assay for identifying genotoxic compounds that show differential cytotoxicity against isogenic chicken DT40 cell lines with known DNA damage response pathways - Rev3 mutant cell line (AID 743014). Also: nearly all actives have a fitted effect of over 55% in size. Also: potency is read from the fitted curve at half-maximal effect.
A short description of test [7]: qHTS assay for identifying genotoxic compounds that show differential cytotoxicity against isogenic chicken DT40 cell lines with known DNA damage response pathways - Rad54/Ku70 mutant cell line (AID 743015). Also: nearly all actives have a fitted effect of over 60% in size. Also: potency is read from the fitted curve at half-maximal effect.
Test [8] deals with Androgen receptor (Homo sapiens) (UniProt P10275). Nature of the test: qHTS assay to identify small molecule antagonists of the androgen receptor (AR) signaling pathway (AID 743035; active = well fitted inhibition curve with a large enough effect in the signal ratio in the repeat runs, not every such curve was filed as active; the % refers to the signal ratio).
For test [9] the target is unchanged. Put plainly: qHTS assay to identify small molecule agonists of the androgen receptor (AR) signaling pathway (AID 743036; active = well fitted activation curve with a large enough effect in the signal ratio in the repeat runs, with a control signal flat, not every such curve was filed as active; the % refers to the signal ratio). Conditions: HEK293 AR-UAS-bla GripTite, beta-lactamase FRET ratio, 16 h; at 62.4 µM (top of the series).
Test [10] has the same target. Nature of the test: qHTS assay to identify small molecule agonists of the androgen receptor (AR) signaling pathway using the MDA cell line (AID 743040; also: nearly all actives have a fitted effect of over 20% in size). Conditions: MDA-kb2 AR-luc cells, MMTV luciferase, 16 h, hits give high values.
Test [11] shares this target. Nature of the test: qHTS assay to identify small molecule antagonists of the androgen receptor (AR) signaling pathway using the MDA cell line (AID 743042; also: nearly all actives have a fitted effect of over 55% in size).
Test [12] is described as follows: qHTS assay to identify small molecule antagonists of the thyroid receptor (TR) signaling pathway - cell viability counter screen (AID 743064). Also: nearly all actives have a fitted effect of over 50% in size. Also: potency is read from the fitted curve at half-maximal effect. In outline:
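Same-well viability check: GH3.TRE-Luc cells stimulated with 1 nM T3 alongside test compound for 23.5 h, followed by CellTiter-Fluor fluorescence.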

In test [13] the test system is thyroid hormone receptor (rat, GH3 cells). Nature of the test: qHTS assay to identify small molecule agonists of the thyroid receptor (TR) signaling pathway (AID 743066; calls by dose curve). Particulars: GH3.TRE-Luc cells, TR agonist luciferase, 24 h; at 83.9 µM (top of the series) unless noted.
The target of test [14] is Estrogen receptor (Homo sapiens) (UniProt P03372). Nature of the test: qHTS assay to identify small molecule antagonists of the estrogen receptor alpha (ER-alpha) signaling pathway (AID 743069; active = well fitted curve in the direction sought with a large enough effect in the signal ratio in the repeat runs, not every such curve was filed as active; the % refers to the signal ratio). A digest of the protocol: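 HEK293 cells stably carrying an ER-alpha-UAS-bla beta-lactamase reporter were pre-cultured overnight in 2% charcoal-stripped FBS medium. Test compounds in DMSO were added together with 17beta-estradiol for 18 hr at 37C. Read-out was fluorescence after 2 hr with LiveBLAzer B/G FRET substrate at room temperature.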

Test [15] is described as follows: qHTS assay to identify small molecule antagonists of the estrogen receptor alpha (ER-alpha) signaling pathway - cell viability counter screen (AID 743074; calls by dose curve; also: nearly all actives have a fitted effect of over 45% in size).
Test [16] addresses Estrogen receptor (Homo sapiens) (UniProt P03372). Nature of the test: qHTS assay to identify small molecule agonists of the estrogen receptor alpha (ER-alpha) signaling pathway (AID 743075; calls by dose curve).
For test [17] the target is unchanged. Put plainly: qHTS assay to identify small molecule agonists of the estrogen receptor alpha (ER-alpha) signaling pathway using the BG1 cell line (AID 743079). Also: nearly all actives have a fitted effect of over 20% in size.
The nature of test [18]: qHTS assay to identify small molecule antagonists of the estrogen receptor alpha (ER-alpha) signaling pathway using the BG1 cell line (AID 743080; calls by dose curve;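 also: BG1 cells stimulated with 17beta-estradiol alongside compound; nearly all actives have a fitted effect of over 25% in size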). Conditions: BG1Luc4E2 ERE-luciferase antagonist mode, luminescence; at 70.3 µM (top of the series) unless noted. In outline: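 Seeding, 24 h rest, compound transfer from DMSO, 17beta-estradiol addition, 21.5 h incubation, CellTiter-Fluor (30 min, 37 C), then ONE-Glo (30 min, room temperature): this sequence was run on BG1-Luc-4E2 reporter cells.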

Test [19] concerns the target Glucocorticoid receptor (Homo sapiens) (UniProt P04150). Put plainly: qHTS assay to identify small molecule agonists of the glucocorticoid receptor (GR) signaling pathway (AID 720691; active = well fitted activation curve with a large enough effect in the signal ratio in the repeat runs, not every such curve was filed as active; the % refers to the signal ratio). Particulars: GR-bla HeLa, beta-lactamase reporter ratio, 18 h; at 62.4 µM (top of the series) unless noted.
The target is the same in test [20]. Nature of the test: qHTS assay to identify small molecule antagonists of the glucocorticoid receptor (GR) signaling pathway (AID 720692; active = well fitted inhibition curve with a large enough effect in the signal ratio in the repeat runs, not every such curve was filed as active; the % refers to the signal ratio). Conditions: GR-bla HeLa, beta-lactamase FRET ratio, dexamethasone-stimulated, 18 h; at 58.5 µM (top of the series) unless noted.
% is scaled to controls: 0 for no effect and ±100 for the full control effect.

Turning to `O=C(OC1CN2CCC1CC2)c1ccccc1` (centres undefined), the values for the fluorescence, % of fluorescent control in [1] and in test [3] were inactive: 0.0533% [at 46 µM] and inactive: 0.0018% [at 46 µM], respectively. Also, the fluorescence, % of fluorescein control in test [2] was inactive: 0.0275% [at 46 µM]. Besides, the Potency result in test [4], in test [5], in test [6], in test [7], in [8] and in [11] was “inactive” each time. The Potency entry in test [12], in [14], in [15], in [16] and in test [17] was “inactive” each time. The figures for the activation in [9] and in test [13] were inactive: 0.0004% and inactive: -0.0622%, respectively. Also, the activity change in [10] (at 70.3 µM (top of the series)) is inactive: 0.173%. In addition, the activity change, negative = inhibition in test [18] is inactive: 5.5%.

Take `O=C1C2CC=CCC2C(=O)N1SC(Cl)(Cl)C(Cl)Cl` (centres undefined): the fluorescence, % of fluorescent control was inactive: -0.102% and inactive: -0.11% in test [1]; inactive: 0.0056% and inactive: 0.0241% in [3]. The fluorescence, % of fluorescein control in test [2] was inactive: 0.0386% and inactive: 0.038%. Also, the Potency in test [4] was active: 11 µM and active: 3.89 µM; in test [5] it was active: 27.5 nM and active: 1.7 nM; in test [6], active: 0.0039 µM; in [7] it was active: 61.6 nM and active: 5.4 nM; in [12], active: 1.74 µM and active: 217 nM. In addition, the values for the activity change in [10] (at 70.3 µM (top of the series)) and in test [10] (at 95 µM (top of the series)) were inactive: -12% and inactive: -11.5%, respectively.

For `CCCCC(CC)CO[P+](=O)OCC(CC)CCCC` (centres undefined), the fluorescence, % of fluorescent control in test [1] was inactive: 0.311%; in test [3] it was inactive: -0.0196%. For the same compound, the fluorescence, % of fluorescein control in test [2] was inactive: -0.0248%. For the same compound, the activation in [19] is inactive: -0.0822%; in test [13], inactive: -0.306%. Further, the activity change, negative = inhibition in [20] was inactive: -3.2%; in [18], inactive: 6.73%. For the same compound, the Potency entry in [4], in test [6], in test [7], in test [12], in test [14] and in test [15] was “inactive” each time. The Potency result in test [16] and in test [17] was “inactive” in each case.

As to `COC(=O)Cl`, the fluorescence, % of fluorescent control in [1] was inactive: 0.0564%; in test [3], inactive: 0.0145%. For the same compound, in [2], the fluorescence, % of fluorescein control is inactive: 0.0153%. The activation in test [19] is inactive: -0.134%; in [13], inactive: 0.0509%. The activity change, negative = inhibition was inactive: 0.0112% in test [20] and inactive: 4.86% in [18]. Besides, the Potency result in test [4], in [5], in [6], in test [7], in [14] and in test [15] was “inactive” throughout. The Potency result in test [16] and in [17] was “inactive” each time.

For `O=[p+]1oc2ccccc2c2ccccc21` (centres undefined), the figures for the fluorescence, % of fluorescent control in test [1] and in test [3] were inactive: -0.137% and inactive: -0.0945%, respectively. The fluorescence, % of fluorescein control in [2] is inactive: -0.0017%. Moreover, the activation in test [19] was inactive: -2.18%; in test [13], inactive: 0.75%. For the same compound, the figures for the activity change, negative = inhibition in test [20] and in test [18] were inactive: -6.61% and inactive: 7.96%, respectively. Further, the Potency result in [4], in test [5], in test [6], in [7], in test [12] and in test [14] was “inactive” in each case. The Potency result in test [15], in test [16] and in [17] was “inactive” in each case.

For `CCNC(C)Cc1ccc2c(c1)OCO2` (centres undefined), the fluorescence, % of fluorescent control in test [1] was inactive: -0.0151% [at 95.7 µM]; in test [3] it was inactive: -0.0013% [at 95.7 µM]. The fluorescence, % of fluorescein control in test [2] is inactive: 0.0009% [at 95.7 µM]. The activation in [19] was inactive: 5.91% [at 79.2 µM]; in test [13], inactive: -1.95% [at 95.2 µM]. Moreover, the activity change, negative = inhibition was inactive: -3.8% [at 78.9 µM] in test [20] and inactive: 2.01% [at 95 µM] in test [18]. Moreover, the Potency result in test [4], in test [12], in test [14], in [15], in test [16] and in test [17] was “inactive” in each case. For the same compound, the Potency in test [6] was active: 5.84 µM; in test [7] it was active: 18.5 µM.
